Literature values, collected in article PMC12767876, “Synthesis and evaluation of enantiomeric quinoline-2-carboxamides: positron emission tomography imaging agents for the translocator protein” (RSC Medicinal Chemistry, 2025).

Sequences of proteins named here, by UniProt entry; tags and fusion partners are left off. Residues count along the entry.
UniProt P30536, 2-169: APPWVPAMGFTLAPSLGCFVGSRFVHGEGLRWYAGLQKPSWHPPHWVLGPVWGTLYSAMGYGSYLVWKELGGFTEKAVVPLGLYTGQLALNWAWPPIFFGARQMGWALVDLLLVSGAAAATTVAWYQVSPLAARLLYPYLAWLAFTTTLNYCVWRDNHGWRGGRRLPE

What was measured:
[1] = biological target: TSPO (Homo sapiens, UniProt P30536); set-up: method as in PMID 32859708; conditions: human brain homogenate, (R)-LW223 n = 14, PK11195 n = 18, mean ± SD; read-out: TSPO affinity (Ki); cited from earlier work
[2] = system: TSPO; set-up: method as in PMID 9234314; conditions: R-enantiomer of PK11195; cited from earlier work

For `CCC(C)N(C)C(=O)c1cc2ccccc2c(-c2ccccc2Cl)n1` (centres unmarked) [PK11195, reference compound], the Ki [1] is listed as 1.2 ± 1 nM and the “fold higher affinity of the R-enantiomer for TSPO” value [2] is listed as “approximately two-fold”.
